Reference: patent US20050032724A1 (priority 2001, published 2005)

Test system: KB 3-1 (MDR1^+++, CYP3A5) cells
Details: 3 days
Procedure: The human epithelial cervical cancer cell line KB 3-1 with two subclones (KB 3-1 (MDR1^+++) and KB 3-1 (MDR1^+++, CYP3A5)) and the bladder cancer cell line RT112, also with subclone (RT112 (MDR1^+, UGT1A1)), were cultured in Dulbecco's Modified Eagle Medium (DMEM) including 3.7 g/l NaHCO3, 4.5 g/l D-Glucose, 1.028 g/l N-Acetyl-L-Alanyl-L-glutamine and supplemented with 10% fetal bovine, 1 mM Na-pyruvate and 1% non-essential amino acids. The human colon cancer cell line LS174T was cultured in Dulbecco's modified Eagle medium containing L-glutamine, pyridoxine hydrochloride and 25 mM Hepes buffer without phenol red, supplemented with 10% fetal bovine, 1 mM Na-pyruvate and 1% non-essential amino acids. All cells were incubated at 37° C. with 5% CO2 in a humidified atmosphere.
Lower concentrated dilutions were prepared in PBS and cell culture medium.
Cells were seeded in 96-well culture plates 24 h prior to treatment. […]
A commercially available MTS assay system (Promega, Madison, USA) was used to determine growth inhibition and cell death according to the instructions of the manufacturer. […] The plate was incubated for at least 45 min at 37° C. in a humidified 5% CO2 atmosphere and the absorbance at 492 nm was measured. The absorbance values of untreated control cells on each plate were set as 100% growth and used to calculate the remaining growth of drug treated cells. […]

irinotecan [CPT-11]
IC50 with R-Verapamil (with R-Verapamil 10 μg/ml): 25 µg/mL
IC50 (50% inhibition of cell growth) (without R-Verapamil): 200 µg/mL
